Data taken from patent publication US20060121085A1, “Formulations for cell-schedule dependent anticancer agents” (priority 2003, published 2006).

Tested on: subcutaneous SW480 (Human Colon Cancer) tumors
Assay: Example 4 Floxuridine in Atrix polymer, SCID mice bearing SW480 tumors II
Conditions: 100 mg/kg FUDR/Saline × 1, ip, 20 μL

Question: For `O=c1[nH]c(=O)n([C@H]2C[C@H](O)[C@@H](CO)O2)cc1F` [FUDR, 5-fluorodeoxyuridine], which “Mortality (%)” value is on record?
Answer: 0%
